The text below walks through data of article PMC12457681.

This assay concerns the target PLCG1 D1165H-sfGFP (UniProt P19174).

Take “alpha smooth muscle actin (endogenous in Hut78) (from UniProt P62736 1-377) (natural protein)”: the PLCG1 phosphorylation (immunoblot) in Hut78 cells expressing PLCG1 D1165H after 0.15 μM jasplakinolide for 0.5 h (actin filaments stabilized), fold increase turned out to be 1.4 fold and the PLCG1 phosphorylation (immunoblot) in Hut78 cells expressing PLCG1 D1165H after 0.5 μM latrunculin A for 0.5 h (actin filaments destabilized), fold decrease was 1.4 fold.
